Assay results taken from ChEMBL document CHEMBL1150976, “The selectivity of protein kinase inhibitors: a further update” (Biochem J, 2007).

By UniProt entry, the sequences of proteins in these tests, tags left out.
UniProt P15056, whole entry: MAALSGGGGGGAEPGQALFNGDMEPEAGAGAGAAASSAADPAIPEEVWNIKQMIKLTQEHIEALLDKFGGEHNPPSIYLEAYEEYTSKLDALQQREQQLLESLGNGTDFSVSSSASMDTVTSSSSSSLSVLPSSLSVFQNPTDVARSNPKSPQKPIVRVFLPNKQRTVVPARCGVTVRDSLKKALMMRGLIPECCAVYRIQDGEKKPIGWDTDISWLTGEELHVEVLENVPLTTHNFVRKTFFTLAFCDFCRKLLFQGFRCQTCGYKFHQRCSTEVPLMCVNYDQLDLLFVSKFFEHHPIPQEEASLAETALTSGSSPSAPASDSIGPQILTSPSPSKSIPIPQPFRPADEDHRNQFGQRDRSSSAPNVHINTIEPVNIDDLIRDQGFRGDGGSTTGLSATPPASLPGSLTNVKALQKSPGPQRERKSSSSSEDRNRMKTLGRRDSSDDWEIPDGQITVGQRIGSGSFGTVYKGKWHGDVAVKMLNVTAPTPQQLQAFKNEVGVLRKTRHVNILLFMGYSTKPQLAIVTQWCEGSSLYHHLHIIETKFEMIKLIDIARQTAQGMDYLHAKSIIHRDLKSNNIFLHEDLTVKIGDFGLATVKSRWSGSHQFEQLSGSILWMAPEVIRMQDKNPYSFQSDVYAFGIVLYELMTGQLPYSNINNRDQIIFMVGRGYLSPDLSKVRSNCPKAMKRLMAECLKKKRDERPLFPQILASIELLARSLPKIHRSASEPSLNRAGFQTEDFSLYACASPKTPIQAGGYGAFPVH

Target: Serine/threonine-protein kinase B-raf (Homo sapiens, UniProt P15056)
Experiment: Percentage B-Raf activity remaining in the presence of 1uM inhibitor
Conditions: filed as antagonist

For O=C1Nc2ccc(I)cc2C1=Cc1cc(Br)c(O)c(Br)c1 [GW305074X], the Activity was 16%.
